The numbers were not newly measured in US20240011094A1, “METHODS FOR DIAGNOSIS AND TREATING POLYCYSTIC OVARY SYNDROME (PCOS)” (INSTITUT NATIONAL DE LA SANTÉ ET DE LA RECHERCHE MÉDICALE, priority 2020, published 2024), which cites them from elsewhere.

Amino acid sequences for entries named in this document (tags omitted). A change or cut given only in a name is not applied to a line headed by its entry.
UniProt Q3URK3: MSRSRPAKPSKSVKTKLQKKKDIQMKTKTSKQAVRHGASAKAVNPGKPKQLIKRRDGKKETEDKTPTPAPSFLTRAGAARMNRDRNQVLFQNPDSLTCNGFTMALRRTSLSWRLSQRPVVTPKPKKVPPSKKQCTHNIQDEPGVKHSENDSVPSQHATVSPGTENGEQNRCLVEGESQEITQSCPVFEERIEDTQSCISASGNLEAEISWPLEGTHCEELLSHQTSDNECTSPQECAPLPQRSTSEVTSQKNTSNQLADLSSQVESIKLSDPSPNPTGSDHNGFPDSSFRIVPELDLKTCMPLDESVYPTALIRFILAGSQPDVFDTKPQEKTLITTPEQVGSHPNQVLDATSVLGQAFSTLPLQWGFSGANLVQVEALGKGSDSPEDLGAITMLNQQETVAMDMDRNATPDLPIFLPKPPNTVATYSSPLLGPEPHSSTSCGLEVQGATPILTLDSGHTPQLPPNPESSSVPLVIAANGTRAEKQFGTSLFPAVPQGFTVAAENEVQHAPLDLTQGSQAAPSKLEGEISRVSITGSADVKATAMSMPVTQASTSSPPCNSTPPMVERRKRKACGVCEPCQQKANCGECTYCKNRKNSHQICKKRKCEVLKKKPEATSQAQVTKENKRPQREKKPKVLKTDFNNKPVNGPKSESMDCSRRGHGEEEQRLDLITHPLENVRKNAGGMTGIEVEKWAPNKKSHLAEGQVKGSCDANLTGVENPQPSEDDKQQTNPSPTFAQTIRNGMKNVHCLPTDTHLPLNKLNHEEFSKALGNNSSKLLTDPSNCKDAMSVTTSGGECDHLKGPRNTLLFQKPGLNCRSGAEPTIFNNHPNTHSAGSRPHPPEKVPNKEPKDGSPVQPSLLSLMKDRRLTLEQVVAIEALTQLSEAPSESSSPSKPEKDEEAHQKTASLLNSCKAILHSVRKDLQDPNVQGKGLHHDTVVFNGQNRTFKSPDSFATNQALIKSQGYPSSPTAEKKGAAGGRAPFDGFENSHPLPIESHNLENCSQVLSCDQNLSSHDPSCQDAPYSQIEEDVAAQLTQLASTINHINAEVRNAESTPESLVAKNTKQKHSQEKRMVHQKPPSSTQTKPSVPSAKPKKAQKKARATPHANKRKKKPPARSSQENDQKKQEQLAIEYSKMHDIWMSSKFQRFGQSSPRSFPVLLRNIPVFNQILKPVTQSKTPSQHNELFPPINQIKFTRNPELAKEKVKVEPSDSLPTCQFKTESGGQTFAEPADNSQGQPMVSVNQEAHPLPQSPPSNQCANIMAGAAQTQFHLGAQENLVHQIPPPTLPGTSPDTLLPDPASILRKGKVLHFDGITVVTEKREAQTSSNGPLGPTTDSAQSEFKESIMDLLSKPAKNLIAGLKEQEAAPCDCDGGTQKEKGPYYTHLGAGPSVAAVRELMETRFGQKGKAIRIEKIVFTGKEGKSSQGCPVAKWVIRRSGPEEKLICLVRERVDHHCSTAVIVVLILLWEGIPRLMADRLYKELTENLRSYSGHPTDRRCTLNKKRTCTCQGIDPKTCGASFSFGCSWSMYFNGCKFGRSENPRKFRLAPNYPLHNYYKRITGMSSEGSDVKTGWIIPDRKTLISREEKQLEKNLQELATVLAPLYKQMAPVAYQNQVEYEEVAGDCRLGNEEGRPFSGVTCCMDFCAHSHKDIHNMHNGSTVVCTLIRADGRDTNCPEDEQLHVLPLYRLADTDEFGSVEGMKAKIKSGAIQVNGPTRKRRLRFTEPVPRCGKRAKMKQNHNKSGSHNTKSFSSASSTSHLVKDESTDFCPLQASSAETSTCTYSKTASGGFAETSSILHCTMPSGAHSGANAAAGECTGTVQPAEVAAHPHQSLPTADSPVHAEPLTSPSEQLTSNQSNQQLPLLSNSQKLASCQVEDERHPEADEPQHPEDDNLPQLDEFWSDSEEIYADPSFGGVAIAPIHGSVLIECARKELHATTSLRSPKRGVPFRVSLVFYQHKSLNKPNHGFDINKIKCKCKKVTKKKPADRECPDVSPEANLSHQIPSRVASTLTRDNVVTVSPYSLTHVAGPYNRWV

The target of the series is mTET1 (Mus musculus, UniProt Q3URK3). Particulars: cited from earlier work.

With Succinate [Molecule 31], the IC50 (as a rule, the point on the concentration scale where inhibition reaches its midpoint) was 540 µM.
